From ChEMBL document CHEMBL1127698, “Matrix metalloproteinase inhibitors containing a (carboxyalkyl)amino zinc ligand: modification of the P1 and P2' residues” (J Med Chem, 1994)

Biological target: T1, Interstitial collagenase (Homo sapiens, UniProt P03956)
T1 sequence (P03956 whole entry): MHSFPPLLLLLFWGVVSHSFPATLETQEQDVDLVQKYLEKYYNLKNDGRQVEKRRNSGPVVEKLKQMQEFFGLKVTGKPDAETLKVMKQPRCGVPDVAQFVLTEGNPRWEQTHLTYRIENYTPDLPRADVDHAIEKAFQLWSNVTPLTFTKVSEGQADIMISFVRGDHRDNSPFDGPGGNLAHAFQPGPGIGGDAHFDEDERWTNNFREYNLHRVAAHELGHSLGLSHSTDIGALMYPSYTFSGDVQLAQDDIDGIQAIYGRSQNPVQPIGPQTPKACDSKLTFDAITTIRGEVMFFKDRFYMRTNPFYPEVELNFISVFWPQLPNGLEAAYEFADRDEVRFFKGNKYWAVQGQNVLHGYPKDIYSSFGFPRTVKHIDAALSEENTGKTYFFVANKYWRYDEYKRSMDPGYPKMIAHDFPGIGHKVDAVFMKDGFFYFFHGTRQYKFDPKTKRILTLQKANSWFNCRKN
Assay: Activity against human collagenase (MMP-1).

IC50: 1170 nM
SMILES: CC(C)C[C@H](N[C@H](CCN1C(=O)c2cc3ccccc3cc2C1=O)C(=O)O)C(=O)Nc1ccccc1
